Results as given in ChEMBL document CHEMBL1133595, “Discovery of chiral N,N-disubstituted trifluoro-3-amino-2-propanols as potent inhibitors of cholesteryl ester transfer protein” (J Med Chem, 2000).

Biological target: T1, Cholesteryl ester transfer protein (Homo sapiens, UniProt P11597)
T1 sequence (P11597 whole entry): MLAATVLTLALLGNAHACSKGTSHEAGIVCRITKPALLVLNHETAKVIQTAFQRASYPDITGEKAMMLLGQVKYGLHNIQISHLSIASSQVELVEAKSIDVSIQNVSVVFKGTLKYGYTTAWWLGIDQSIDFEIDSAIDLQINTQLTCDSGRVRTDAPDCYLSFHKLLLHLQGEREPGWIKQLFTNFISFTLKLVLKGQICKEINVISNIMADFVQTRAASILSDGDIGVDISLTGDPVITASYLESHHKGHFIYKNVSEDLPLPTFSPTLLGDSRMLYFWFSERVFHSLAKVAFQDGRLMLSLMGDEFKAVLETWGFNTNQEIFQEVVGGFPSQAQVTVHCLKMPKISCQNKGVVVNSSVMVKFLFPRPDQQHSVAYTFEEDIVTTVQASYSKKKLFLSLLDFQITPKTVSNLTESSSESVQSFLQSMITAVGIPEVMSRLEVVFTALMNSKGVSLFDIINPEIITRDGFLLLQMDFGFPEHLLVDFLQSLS
Test: Tested for inhibiting CETP-mediated transfer of [3H]-CE from HDL to LDL in vitro under buffered assay conditions in human serum.
Assay type: cell-free

SMILES: O[C@H](CN(Cc1cccc(OC(F)(F)C(F)F)c1)c1cccc(Oc2ccccc2)c1)C(F)(F)F
- IC50: 0.6 µM

SMILES: OC(CN(Cc1cccc(OC(F)(F)C(F)F)c1)c1cccc(Oc2ccccc2)c1)C(F)(F)F (configuration not stated)
- IC50: 6 µM
